Laboratory results taken from publication PMC10962654 (Journal of Food and Drug Analysis, 2023).

Conditions: MI/R rats, plasma, n = 6

What does the source list for kaempferol-3-O-rutinoside?
AUC(0-t) (GHI-H (GHI 10 mL/kg, i.v.)): 778.474 ± 381.478 ng·h/mL; CL1 (GHI-H (GHI 10 mL/kg, i.v.)): 74.68 ± 4.42 mL/min/kg; CL2 (GHI-H (GHI 10 mL/kg, i.v.)): 141.4 ± 10.2 mL/min/kg; K10 (GHI-H (GHI 10 mL/kg, i.v.)): 9.381 ± 1.601 h⁻¹; K12 (GHI-H (GHI 10 mL/kg, i.v.)): 17.849 ± 3.532 h⁻¹; K21 (GHI-H (GHI 10 mL/kg, i.v.)): 6.923 ± 0.999 h⁻¹; Q (GHI-H (GHI 10 mL/kg, i.v.)): 141.4 ± 10.2 mL/min/kg; V1 (GHI-H (GHI 10 mL/kg, i.v.)): 0.49 ± 0.094 L/kg; V2 (GHI-H (GHI 10 mL/kg, i.v.)): 1.244 ± 0.167 L/kg; t1/2α (GHI-H (GHI 10 mL/kg, i.v.)): 1.32 ± 0.24 min; t1/2β (GHI-H (GHI 10 mL/kg, i.v.)): 20.9 ± 2.82 min; AUC(0-t) (GHI-L (GHI 2.5 mL/kg, i.v.)): 163.614 ± 83.456 ng·h/mL; CL1 (GHI-L (GHI 2.5 mL/kg, i.v.)): 85.97 ± 4.43 mL/min/kg; CL2 (GHI-L (GHI 2.5 mL/kg, i.v.)): 155.2 ± 42.88 mL/min/kg; K10 (GHI-L (GHI 2.5 mL/kg, i.v.)): 10.77 ± 4.722 h⁻¹; K12 (GHI-L (GHI 2.5 mL/kg, i.v.)): 19.134 ± 9.171 h⁻¹; K21 (GHI-L (GHI 2.5 mL/kg, i.v.)): 3.903 ± 1.019 h⁻¹; Q (GHI-L (GHI 2.5 mL/kg, i.v.)): 155.2 ± 42.83 mL/min/kg; V1 (GHI-L (GHI 2.5 mL/kg, i.v.)): 0.546 ± 0.192 L/kg; V2 (GHI-L (GHI 2.5 mL/kg, i.v.)): 2.437 ± 0.538 L/kg; t1/2α (GHI-L (GHI 2.5 mL/kg, i.v.)): 1.44 ± 0.48 min; t1/2β (GHI-L (GHI 2.5 mL/kg, i.v.)): 33.8 ± 6.96 min; AUC(0-t) (GHI-M (GHI 5 mL/kg, i.v.)): 211.446 ± 86.297 ng·h/mL; CL1 (GHI-M (GHI 5 mL/kg, i.v.)): 68.9 ± 5.63 mL/min/kg; CL2 (GHI-M (GHI 5 mL/kg, i.v.)): 81.98 ± 19.82 mL/min/kg; K10 (GHI-M (GHI 5 mL/kg, i.v.)): 7.644 ± 2.745 h⁻¹; K12 (GHI-M (GHI 5 mL/kg, i.v.)): 9.432 ± 4.449 h⁻¹; K21 (GHI-M (GHI 5 mL/kg, i.v.)): 3.686 ± 2.064 h⁻¹; Q (GHI-M (GHI 5 mL/kg, i.v.)): 81.98 ± 19.83 mL/min/kg; V1 (GHI-M (GHI 5 mL/kg, i.v.)): 0.603 ± 0.211 L/kg; V2 (GHI-M (GHI 5 mL/kg, i.v.)): 1.669 ± 0.725 L/kg; t1/2α (GHI-M (GHI 5 mL/kg, i.v.)): 2.7 ± 1.5 min; t1/2β (GHI-M (GHI 5 mL/kg, i.v.)): 37.3 ± 21.1 min

Like-named read-outs stand apart in the source and are kept apart here.
